Source: ChEMBL document CHEMBL1130764, “Synthesis of a potent wide-spectrum serotonin-, norepinephrine-, dopamine-reuptake inhibitor (SNDRI) and a species-selective dopamine-reuptake inhibitor based on the gamma-amino alcohol functional group” (Bioorg Med Chem Lett, 1998)

Amino acid sequences for entries named in this document (tags omitted).
UniProt P31652, whole entry: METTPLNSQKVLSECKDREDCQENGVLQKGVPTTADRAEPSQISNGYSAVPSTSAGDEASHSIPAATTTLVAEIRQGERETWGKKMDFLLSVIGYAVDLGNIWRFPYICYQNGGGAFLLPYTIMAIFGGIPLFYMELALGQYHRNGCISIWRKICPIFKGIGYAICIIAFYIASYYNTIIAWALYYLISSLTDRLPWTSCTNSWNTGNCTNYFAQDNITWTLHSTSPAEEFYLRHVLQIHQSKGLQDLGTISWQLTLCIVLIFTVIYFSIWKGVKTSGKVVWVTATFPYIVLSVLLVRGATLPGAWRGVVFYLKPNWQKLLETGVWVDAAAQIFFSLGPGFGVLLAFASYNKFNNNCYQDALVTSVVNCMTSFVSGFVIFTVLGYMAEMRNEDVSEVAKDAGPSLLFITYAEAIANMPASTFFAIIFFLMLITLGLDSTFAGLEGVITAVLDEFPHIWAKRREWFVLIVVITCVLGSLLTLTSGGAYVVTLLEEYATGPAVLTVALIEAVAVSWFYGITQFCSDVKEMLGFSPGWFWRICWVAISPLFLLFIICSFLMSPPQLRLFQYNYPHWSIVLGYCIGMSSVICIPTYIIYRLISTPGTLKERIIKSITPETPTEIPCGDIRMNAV
UniProt P31645, whole entry: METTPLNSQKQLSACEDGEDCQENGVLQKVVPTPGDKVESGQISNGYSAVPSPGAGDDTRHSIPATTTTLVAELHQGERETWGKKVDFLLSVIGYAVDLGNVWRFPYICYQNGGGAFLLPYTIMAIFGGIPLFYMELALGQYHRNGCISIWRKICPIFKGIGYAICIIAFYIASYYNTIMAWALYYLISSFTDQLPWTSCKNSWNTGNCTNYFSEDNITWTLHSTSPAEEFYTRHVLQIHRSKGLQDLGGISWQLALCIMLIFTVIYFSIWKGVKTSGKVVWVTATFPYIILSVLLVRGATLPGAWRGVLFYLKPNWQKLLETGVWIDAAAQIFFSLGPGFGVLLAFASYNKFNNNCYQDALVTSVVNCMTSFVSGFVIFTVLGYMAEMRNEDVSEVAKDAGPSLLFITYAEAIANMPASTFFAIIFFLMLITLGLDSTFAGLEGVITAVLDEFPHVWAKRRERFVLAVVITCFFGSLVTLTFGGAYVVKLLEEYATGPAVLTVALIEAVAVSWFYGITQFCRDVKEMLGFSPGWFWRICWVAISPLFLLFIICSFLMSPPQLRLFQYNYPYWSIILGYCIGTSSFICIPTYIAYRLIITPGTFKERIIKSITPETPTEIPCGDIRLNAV

What was measured:
[1] = target: Sodium-dependent serotonin transporter (Rattus norvegicus, UniProt P31652); assay: Inhibition of [3H]5-HT reuptake into rat frontal cortex synaptosomes; assay type: subcellular, Brain
[2] = target: T1, Sodium-dependent serotonin transporter (Homo sapiens, UniProt P31645)
[3] = target: T1, Sodium-dependent serotonin transporter; assay: Equilibrium dissociation constant (KD) for Competitive binding between [3H]- imipramine and the compound at human transporter -hSERT

| Ki [1] [nM] | Kd [3] [nM] | SMILES | Kd [2] [nM] |
| --- | --- | --- | --- |
| – | – | CN(C)C[C@@H](c1ccc2ccccc2c1)[C@@H](O)c1ccccc1 (racemic) | 5.59 |
| 643 | – | Cc1cc(C)c([C@H](O)[C@@H](CN)c2ccccc2)c(C)c1 (racemic) | 118 |
| 164 | – | COc1ccc([C@H](CN)[C@@H](O)C2CCCCC2)cc1 (racemic) | 76 |
| 2730 | – | NC[C@@H](c1ccccc1)[C@@H](O)c1ccccc1 (racemic) | 3050 |
| – | – | CN(C)C[C@@H](c1ccc2ccccc2c1)[C@@H](O)C(C)(C)C (racemic) | 1.2 |
| 57 | – | Cc1cc(C)c([C@H](O)[C@@H](CN(C)C)c2ccccc2)c(C)c1 (racemic) | 8.5 |
| – | – | CC(C)(C)[C@H](O)[C@@H](CN)c1ccc2ccccc2c1 (racemic) | 6.1 |
| 210 | 48 | CN(C)C[C@@H](c1ccccc1)[C@@H](O)c1ccccc1 (racemic) | – |
| 16500 | – | CCOc1ccccc1OCC1CNCCO1 (racemic) [VILOXAZINE] | 17300 |

| SMILES | Ki [1] [nM] | Kd [3] [nM] | Kd [2] [nM] |
| --- | --- | --- | --- |
| COc1ccc([C@H](CN(C)C)[C@@H](O)C2CCCCC2)cc1 (racemic) | 30 | – | 30 |
| NC[C@@H](c1ccc2ccccc2c1)[C@@H](O)c1ccccc1 (racemic) | 27 | – | – |
| CN(C)C[C@@H](c1ccccc1)[C@@H](O)C(C)(C)C (racemic) | 60 | – | 40 |
| CC(C)(C)[C@H](O)[C@@H](CN)c1ccccc1 (racemic) | 700 | – | 1100 |
